Measurements from patent EP0363041A1 (priority 1988, dated 1990).

Experiments:
Conditions in all cases: morphine = 100; competitive ELISA on NM-BSA
MO-2 = test system: MO-2
MO-3 = test system: MO-3
MO-4 = test system: MO-4
MO-5 = test system: MO-5
MO-6 = test system: MO-6

**Q.** For `CCC(=O)N(c1ccccc1)C1CCN(CCc2ccccc2)CC1`, which “reactivity ratio with morphine, MO-2” value (MO-2) is on record?
**A.** < 1.0

**Q.** And the “reactivity ratio with morphine, MO-3” value (MO-3)?
**A.** < 0.01

**Q.** And the “reactivity ratio with morphine, MO-4” value (MO-4)?
**A.** < 0.001

**Q.** And the “reactivity ratio with morphine, MO-5” value (MO-5)?
**A.** < 0.001

**Q.** What about the “reactivity ratio with morphine, MO-6” value (MO-6) of the same molecule?
**A.** < 0.1

This is a selection: effects in other tests are not listed, and their absence says nothing.
